Reference: ChEMBL document CHEMBL3286215, “Preparation, anticholinesterase activity and molecular docking of new lupane derivatives” (Bioorg Med Chem, 2014)

Sequences of proteins named here, by UniProt entry; tags and fusion partners are left off.
UniProt P81908, whole entry: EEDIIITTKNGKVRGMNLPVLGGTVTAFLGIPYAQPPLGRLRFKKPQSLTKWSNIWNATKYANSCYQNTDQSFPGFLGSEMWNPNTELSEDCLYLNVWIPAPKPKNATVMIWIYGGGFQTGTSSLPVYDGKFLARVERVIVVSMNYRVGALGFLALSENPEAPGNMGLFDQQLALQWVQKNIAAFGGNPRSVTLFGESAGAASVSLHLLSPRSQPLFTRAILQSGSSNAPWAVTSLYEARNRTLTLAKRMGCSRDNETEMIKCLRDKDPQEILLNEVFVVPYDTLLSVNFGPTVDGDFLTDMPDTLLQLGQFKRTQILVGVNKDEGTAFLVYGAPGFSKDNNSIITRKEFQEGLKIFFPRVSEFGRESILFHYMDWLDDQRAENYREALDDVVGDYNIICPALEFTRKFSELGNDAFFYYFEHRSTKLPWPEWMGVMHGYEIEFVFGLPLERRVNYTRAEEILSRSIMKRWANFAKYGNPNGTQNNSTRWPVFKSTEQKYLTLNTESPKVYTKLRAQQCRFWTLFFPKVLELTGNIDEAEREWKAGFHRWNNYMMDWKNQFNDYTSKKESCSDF

Molecular target: Cholinesterase (Equus caballus, UniProt P81908)

CNC(=O)Oc1ccc2c(c1)[C@]1(C)CCN(C)[C@@H]1N2C [PHYSOSTIGMINE]
IC50: 14 nM
